# Source: US4701521A, “Method of effecting cellular uptake of molecules” (The Trustees of Boston University, priority 1979, dated 1987)
# Tested on: L929 mouse fibroblast cells
# Assay: Cellular uptake of ^125 I-HSA and its conjugates by L929 monolayers
# Type: cell-based
Substance,"Uptake in 60 min. (Example 5, 50 μg/ml)","Uptake In 60 Min. (Example 3, Experiment 1, 50 μg/ml ^125 I-HSA free or conjugated, 37° C., serum-free)","Uptake In 60 Min. (Example 3, Experiment 1, + 10 μg/ml free PLL (MW 6700))","Uptake In 60 Min. (Example 3, Experiment 2, 50 μg/ml, 37° C., serum-free)","Uptake In 60 Min. (Example 3, Experiment 2, + non-labeled HSA-PLL (50 μg/ml))","Uptake in 60 min. (Example 4, unconjugated HSA)","Enhancement (multiple of control) (Example 12, 50 μg/ml)","Uptake, 60-1 (net uptake) (Example 12, 50 μg/ml)","Uptake, 1 min. (Example 12, 50 μg/ml)","Uptake, 60 min. (Example 12, 50 μg/ml)"
^125 I-HSA-PLL-CARB.: HSA-PLL conjugate treated with potassium cyanate to carbamylate the amino groups of PLL,0.51 μg/mg cell protein,–,–,–,–,–,–,–,–,–
human serum albumin [HSA],0.44 μg/mg cell protein,0.41 μg/mg cell protein,0.41 μg/mg cell protein,0.60 μg/mg cell protein,0.77 μg/mg cell protein,0.6 μg/mg cell protein,1 ×,226.7 CPM/mg cell protein,164.9 CPM/mg cell protein,391.6 CPM/mg cell protein
